# From EP4563146A1 (IRBM S.P.A., priority 2023, dated 2025)
# Read-outs that look alike come from different tables or passages of the source.
# Assays:
# [1] = target: DEN2V NS2B-G4SG4-NS3 serine protease (Dengue virus type 2, UniProt Q91H74); experiment: DEN2V protease inhibition assay
# [2] = target: DEN1V NS2B-G4SG4NS3 serine protease (Dengue virus type 1, UniProt P17763); experiment: DEN1V protease inhibition assay
# [3] = target: DEN3V NS2B-G4SG4NS3 serine protease (Dengue virus type 3, UniProt Q6YMS4); experiment: DEN3V protease inhibition assay
# [4] = target: DEN4V NS2B-G4SG4NS3 serine protease (Dengue virus type 4, UniProt P09866); experiment: DEN4V protease inhibition assay
SMILES,IC50 [1] [nM],IC50 [2] [nM],IC50 [3] [nM],IC50 [4] [nM],IC50 ([1]; read-out: Dengue 2 - NS3 protease) [nM],IC50 ([2]; read-out: Dengue 1 - NS3 protease) [nM],IC50 ([3]; read-out: Dengue 3 - NS3 protease) [nM],IC50 ([4]; read-out: Dengue 4 - NS3 protease) [nM]
"NC[C@H]1CC[C@H]([n+]2cc([N-]C(=O)Nc3cc(NC(=O)Cc4ccccc4)cc(C(F)(F)F)c3)on2)CC1 [Example 93, (3-((1R,4R)-4-(Aminomethyl)cyclohexyl)-1,2,3-oxadiazol-3-ium-5-yl)((3-(2-phenyl-acetamido)-5-(trifluoromethyl)phenyl)-carbamoyl)amide]",< 100,1000 to 20000,100 to 1000,100 to 1000,,,,
"O=C(Cc1ccccc1)Nc1cc(NC(=O)[N-]c2c[n+](Cc3ccc(-c4cccc5c4CNC5)cn3)no2)cc(C(F)(F)F)c1 [Example 14, (3-((5-(Isoindolin-4-yl)pyridin-2-yl)methyl)-1,2,3-oxadiazol-3-ium-5-yl)((3-(2-phenylacetamido)-5-(trifluoromethyl)phenyl)carbamoyl)amide]",< 100,1000 to 20000,< 100,< 100,,,,
"CC(=O)NC[C@H]1CC[C@@H]([n+]2cc([N-]C(=O)Nc3cc(NC(=O)Cc4ccccc4)cc(C(F)(F)F)c3)on2)CC1 [Example 62, (3-((1S,4S)-4-(Acetamidomethyl)cyclohexyl)-1,2,3-oxadiazol-3-ium-5-yl)((3-(2-phenylacetamido)-5-(trifluoromethyl)phenyl)carbamoyl)amide]",< 100,> 20000,1000 to 20000,1000 to 20000,,,,
"COc1ncc(-c2ccc(C[n+]3cc([N-]C(=O)Nc4cc(NC(=O)Cc5ccccc5)cc(C(F)(F)F)c4)on3)cc2)c(C)n1 [Example 1, (3-(4-(2-Methoxy-4-methylpyrimidin-5-yl)benzyl)-1,2,3-oxadiazol-3-ium-5-yl)((3-(2-phenylacetamido)-5-(trifluoromethyl)phenyl)carbamoyl)amide]",< 100,1000 to 20000,< 100,< 100,,,,
"NC[C@H]1CC[C@@H]([n+]2cc([N-]C(=O)Nc3cc(NC(=O)Cc4ccccc4)cc(C(F)(F)F)c3)on2)CC1 [Example 59, (3-((1S,4S)-4-(Aminomethyl)cyclohexyl)-1,2,3-oxadiazol-3-ium-5-yl)((3-(2-phenyl-acetamido)-5-(trifluoromethyl)phenyl)-carbamoyl)amide]",< 100,1000 to 20000,100 to 1000,1000 to 20000,,,,
"N[C@H]1CC[C@@H]([n+]2cc([N-]C(=O)Nc3cc(NC(=O)Cc4ccccc4)cc(C(F)(F)F)c3)on2)CC1 [Example 91, (3-((1S,4S)-4-Aminocyclohexyl)-1,2,3-oxadiazol-3-ium-5-yl)((3-(2-phenylacetamido)-5-(trifluoromethyl)phenyl)carbamoyl)amide]",< 100,1000 to 20000,100 to 1000,1000 to 20000,,,,
"O=C(Cc1ccccc1)Nc1cc(NC(=O)[N-]c2c[n+](Cc3ccccc3)no2)cc(C(F)(F)F)c1 [Example 28, (3-Benzyl-1,2,3-oxadiazol-3-ium-5-yl)((3-(2-phenylacetamido)-5-(trifluoro-methyl)phenyl)carbamoyl)amide]",< 100,> 20000,100 to 1000,1000 to 20000,,,,
"CN(C)C[C@H]1CC[C@@H]([n+]2cc([N-]C(=O)Nc3cc(NC(=O)Cc4ccccc4)cc(C(F)(F)F)c3)on2)CC1 [Example 61, (3-((1S,4S)- -4-((Dimethylamino)methyl)cyclohexyl)-1,2,3-oxadiazol-3-ium-5-yl)((3-(2-phenylacetamido)-5-(trifluoromethyl)phenyl)carbamoyl)amide]",< 100,> 20000,100 to 1000,1000 to 20000,,,,
"CN(C)C[C@H]1CC[C@H]([n+]2cc([N-]C(=O)Nc3cc(NC(=O)Cc4ccccc4)cc(C(F)(F)F)c3)on2)CC1 [Example 94, (3-((1R,4R)-4-((Dimethylamino)methyl)-cyclohexyl)-1,2,3-oxadiazol-3-ium-5-yl)((3-(2-phenylacetamido)-5-(trifluoromethyl)phenyl)-carbamoyl)amide]",,,,,< 100,1000 to 20000,100 to 1000,100 to 1000
"CN(C)[C@H]1C[C@H]([n+]2cc([N-]C(=O)Nc3cc(NC(=O)Cc4ccccc4)cc(C(F)(F)F)c3)on2)C1 [Example 55, (3-((1R3R)-3-(Dimethylamino)cyclobutyl)-1,2,3-oxadiazol-3-ium-5-yl)((3-(2-phenyl-acetamido)-5-(trifluoromethyl)phenyl)-carbamoyl)amide]",100 to 1000,> 20000,1000 to 20000,> 20000,,,,
"CN1CCCCC1C[n+]1cc([N-]C(=O)Nc2cc(NC(=O)Cc3ccccc3)cc(C(F)(F)F)c2)on1 (centres unmarked) [Example 105, (3-((1-Methylpiperidin-2-yl)methyl)-1,2,3-oxadiazol-3-ium-5-yl)((3-(2-phenylacetamido)-5-(trifluoromethyl)phenyl)carbamoyl)amide]",< 100,> 20000,100 to 1000,1000 to 20000,,,,
"NCc1ccc(C[n+]2cc([N-]C(=O)Nc3cc(NC(=O)Cc4ccccc4)cc(C(F)(F)F)c3)on2)cc1 [Example 56, (3-(4-(Aminomethyl)benzyl)-1,2,3-oxadiazol-3-ium-5-yl)((3-(2-phenylacetamido)-5-(trifluoromethyl)phenyl)carbamoyl)amide]",< 100,1000 to 20000,< 100,100 to 1000,,,,
"COC(=O)c1ccc(C[n+]2cc([N-]C(=O)Nc3cc(NC(=O)Cc4ccccc4)cc(C(F)(F)F)c3)on2)nc1 [Example 113, (3-((5-(Methoxycarbonyl)pyridin-2-yl)methyl)-1,2,3-oxadiazol-3-ium-5-yl)((3-(2-phenylacetamido)-5-(trifluoromethyl)phenyl)carbamoyl)amide]",< 100,> 20000,100 to 1000,1000 to 20000,,,,
"O=C(Cc1ccccc1)Nc1cc(NC(=O)[N-]c2c[n+](CC3CNCCCO3)no2)cc(C(F)(F)F)c1 (centres unmarked) [Example 115, (3-((1,4-oxazepan-2-yl)methyl)-1,2,3-oxadiazol-3-ium-5-yl)((3-(2-phenylacetamido)-5-(trifluoromethyl)phenyl)carbamoyl)amide]",< 100,1000 to 20000,100 to 1000,1000 to 20000,,,,
"NC[C@H]1CC[C@@H]([n+]2cc([N-]C(=O)Nc3cc(N4CCC(c5ccccc5)C4=O)cc(C(F)(F)F)c3)on2)CC1 (stereo partly drawn) [Example 119, (3-((1S,4S)-4-(Aminomethyl)cyclohexyl)-1,2,3-oxadiazol-3-ium-5-yl)((3-(2-oxo-3-phenylpyrrolidin-1-yl)-5-(trifluoromethyl)phenyl)-carbamoyl)amide]",< 100,1000 to 20000,100 to 1000,1000 to 20000,,,,
"COc1ncc(-c2ccc(C[n+]3cc([N-]C(=O)Nc4cc(NC(=O)CCc5ccccc5)cc(C(F)(F)F)c4)on3)cc2)c(C)n1 [Example 9, (3-(4-(2-Methoxy-4-methylpyrimidin-5-yl)benzyl)-1,2,3-oxadiazol-3-ium-5-yl)((3-(3-phenylpropanamido)-5-(trifluoromethyl)phenyl)carbamoyl)amide]",< 100,100 to 1000,100 to 1000,100 to 1000,,,,
"NCc1ccccc1C[n+]1cc([N-]C(=O)Nc2cc(NC(=O)Cc3ccccc3)cc(C(F)(F)F)c2)on1 [Example 114, (3-(2-(Aminomethyl)benzyl)-1,2,3-oxadiazol-3-ium-5-yl)((3-(2-phenylacetamido)-5-(trifluoromethyl)phenyl)carbamoyl)amide]",< 100,1000 to 20000,100 to 1000,1000 to 20000,,,,
